Experimental data taken from IntAct's records for PubMed 35512704.

B1: RAC-alpha serine/threonine-protein kinase (Homo sapiens), P31749 (parent)
chain: MSDVAIVKEGWLHKRGEYIKTWRPRYFLLKNDGTFIGYKERPQDVDQREAPLNNFSVAQCQLMKTERPRPNTFIIRCLQWTTVIERTFHVETPEEREEWTTAIQTVADGLKKQEEEEMDFRSGSPSDNSGAEEMEVSLAKPKHRVTMNEFEYLKLLGKGTFGKVILVKEKATGRYYAMKILKKEVIVAKDEVAHTLTENRVLQNSRHPFLTALKYSFQTHDRLCFVMEYANGGELFFHLSRERVFSEDRARFYGAEIVSALDYLHSEKNVVYRDLKLENLMLDKDGHIKITDFGLCKEGIKDGATMKTFCGTPEYLAPEVLEDNDYGRAVDWWGLGVVMYEMMCGRLPFYNQDHEKLFELILMEEIRFPRTLGPEAKSLLSGLLKKDPKQRLGGGSEDAKEIMQHRFFAGIVWQHVYEKKLSPPFKPQVTSETDTRYFDEEFTAQMITITPPDQDDSMECVDSERRPHFPQFSYSASGTA
partner: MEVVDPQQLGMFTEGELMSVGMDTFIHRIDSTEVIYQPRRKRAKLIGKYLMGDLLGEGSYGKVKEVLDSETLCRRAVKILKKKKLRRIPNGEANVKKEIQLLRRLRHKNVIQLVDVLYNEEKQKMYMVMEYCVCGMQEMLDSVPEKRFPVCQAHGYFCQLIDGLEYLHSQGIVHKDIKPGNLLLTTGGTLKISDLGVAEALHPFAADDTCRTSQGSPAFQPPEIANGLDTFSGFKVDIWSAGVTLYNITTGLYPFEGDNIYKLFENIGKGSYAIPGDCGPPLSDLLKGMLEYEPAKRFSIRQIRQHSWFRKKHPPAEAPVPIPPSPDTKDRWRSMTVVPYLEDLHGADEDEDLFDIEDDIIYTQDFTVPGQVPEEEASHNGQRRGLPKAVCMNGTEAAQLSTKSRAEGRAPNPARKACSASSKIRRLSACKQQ
B2: RAC-alpha serine/threonine-protein kinase (Homo sapiens), P31749 (parent)
chain: B1 chain
partner: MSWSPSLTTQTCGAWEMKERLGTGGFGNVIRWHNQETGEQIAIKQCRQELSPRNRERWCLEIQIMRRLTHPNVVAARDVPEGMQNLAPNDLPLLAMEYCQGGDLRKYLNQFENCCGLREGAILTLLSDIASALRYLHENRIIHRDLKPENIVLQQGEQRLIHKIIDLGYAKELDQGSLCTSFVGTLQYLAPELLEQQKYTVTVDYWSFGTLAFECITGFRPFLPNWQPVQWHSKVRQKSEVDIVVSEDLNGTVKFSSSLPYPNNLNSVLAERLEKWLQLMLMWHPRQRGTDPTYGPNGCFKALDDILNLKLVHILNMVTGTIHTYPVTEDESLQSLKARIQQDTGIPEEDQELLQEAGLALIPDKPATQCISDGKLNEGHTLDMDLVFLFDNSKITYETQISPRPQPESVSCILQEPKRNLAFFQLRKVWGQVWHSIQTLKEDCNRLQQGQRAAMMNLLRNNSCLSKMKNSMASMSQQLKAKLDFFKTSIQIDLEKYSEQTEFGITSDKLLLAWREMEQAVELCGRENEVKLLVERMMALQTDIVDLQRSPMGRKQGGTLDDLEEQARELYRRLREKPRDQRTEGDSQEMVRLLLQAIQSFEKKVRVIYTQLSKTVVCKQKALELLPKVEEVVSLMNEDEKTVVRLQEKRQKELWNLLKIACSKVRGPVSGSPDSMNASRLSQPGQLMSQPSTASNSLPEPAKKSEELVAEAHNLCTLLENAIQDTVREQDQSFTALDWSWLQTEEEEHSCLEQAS
B3: RAC-alpha serine/threonine-protein kinase (Homo sapiens), P31749 (parent)
chain: B1 chain
partner: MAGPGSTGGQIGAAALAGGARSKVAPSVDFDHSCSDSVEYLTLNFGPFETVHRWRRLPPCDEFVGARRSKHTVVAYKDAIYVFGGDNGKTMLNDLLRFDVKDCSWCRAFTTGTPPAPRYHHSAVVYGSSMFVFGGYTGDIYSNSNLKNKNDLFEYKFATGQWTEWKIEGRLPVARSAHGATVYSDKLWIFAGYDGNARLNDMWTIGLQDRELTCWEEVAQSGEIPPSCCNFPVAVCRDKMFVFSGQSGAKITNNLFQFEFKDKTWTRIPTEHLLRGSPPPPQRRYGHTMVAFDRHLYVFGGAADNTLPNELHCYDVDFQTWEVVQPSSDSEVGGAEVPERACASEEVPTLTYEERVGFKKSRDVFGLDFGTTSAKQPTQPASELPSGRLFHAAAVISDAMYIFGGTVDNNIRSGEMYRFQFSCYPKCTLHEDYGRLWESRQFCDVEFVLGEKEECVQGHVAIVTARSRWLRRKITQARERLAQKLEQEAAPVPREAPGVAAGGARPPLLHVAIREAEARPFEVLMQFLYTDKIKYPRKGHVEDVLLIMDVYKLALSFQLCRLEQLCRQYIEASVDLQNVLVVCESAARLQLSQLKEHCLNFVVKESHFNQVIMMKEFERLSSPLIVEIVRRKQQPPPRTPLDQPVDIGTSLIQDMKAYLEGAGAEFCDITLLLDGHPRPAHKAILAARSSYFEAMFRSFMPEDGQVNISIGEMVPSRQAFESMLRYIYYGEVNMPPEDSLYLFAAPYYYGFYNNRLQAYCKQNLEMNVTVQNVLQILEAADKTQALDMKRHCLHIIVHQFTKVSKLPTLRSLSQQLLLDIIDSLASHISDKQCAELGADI
B4: RAC-alpha serine/threonine-protein kinase (Homo sapiens), P31749 (parent)
chain: B1 chain
partner: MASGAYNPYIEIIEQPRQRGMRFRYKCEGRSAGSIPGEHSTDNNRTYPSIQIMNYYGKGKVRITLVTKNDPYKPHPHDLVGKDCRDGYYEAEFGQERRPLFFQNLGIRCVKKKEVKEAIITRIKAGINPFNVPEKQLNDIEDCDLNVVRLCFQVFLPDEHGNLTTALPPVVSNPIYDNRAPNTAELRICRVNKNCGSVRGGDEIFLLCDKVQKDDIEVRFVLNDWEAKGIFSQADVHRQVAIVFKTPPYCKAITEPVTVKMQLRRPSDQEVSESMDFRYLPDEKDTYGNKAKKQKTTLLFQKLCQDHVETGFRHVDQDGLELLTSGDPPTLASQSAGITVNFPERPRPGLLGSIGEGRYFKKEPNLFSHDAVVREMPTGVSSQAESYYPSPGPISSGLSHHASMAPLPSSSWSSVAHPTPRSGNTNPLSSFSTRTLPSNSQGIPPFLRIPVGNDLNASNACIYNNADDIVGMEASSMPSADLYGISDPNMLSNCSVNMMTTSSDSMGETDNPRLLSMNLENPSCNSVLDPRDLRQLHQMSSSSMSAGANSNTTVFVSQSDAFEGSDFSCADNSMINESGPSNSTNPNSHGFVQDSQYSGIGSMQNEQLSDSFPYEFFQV
B5: RAC-alpha serine/threonine-protein kinase (Homo sapiens), P31749 (parent)
chain: B1 chain
partner: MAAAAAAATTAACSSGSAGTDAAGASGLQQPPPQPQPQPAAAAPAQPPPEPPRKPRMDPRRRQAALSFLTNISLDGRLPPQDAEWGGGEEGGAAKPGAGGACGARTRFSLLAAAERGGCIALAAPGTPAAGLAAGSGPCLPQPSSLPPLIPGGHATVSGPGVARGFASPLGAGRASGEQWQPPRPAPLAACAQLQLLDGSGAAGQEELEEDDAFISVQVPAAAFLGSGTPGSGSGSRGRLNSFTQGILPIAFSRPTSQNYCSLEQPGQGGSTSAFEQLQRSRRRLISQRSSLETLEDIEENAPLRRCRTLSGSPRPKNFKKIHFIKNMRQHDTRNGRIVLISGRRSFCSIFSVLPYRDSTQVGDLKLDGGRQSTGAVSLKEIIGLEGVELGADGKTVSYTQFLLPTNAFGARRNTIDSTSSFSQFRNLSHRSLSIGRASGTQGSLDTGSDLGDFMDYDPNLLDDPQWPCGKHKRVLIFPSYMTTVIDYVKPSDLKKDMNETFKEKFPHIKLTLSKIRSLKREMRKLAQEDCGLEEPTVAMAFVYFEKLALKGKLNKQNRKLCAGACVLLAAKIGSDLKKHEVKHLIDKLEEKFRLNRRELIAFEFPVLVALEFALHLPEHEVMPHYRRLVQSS

Variants of: B1
Conditions: with stk11_human STK11, Q15831

Row | effect of a mutation on the interaction | Variant
1 | with no effect | E17K

Variants of: B2
Conditions: with ikkb_human IKBKB

Row | effect of a mutation on the interaction | Variant
2 | with no effect | E17K

Variants of: B3
Conditions: with lztr1_human LZTR1, Q8N653

Row | effect of a mutation on the interaction | Variant
3 | with no effect | E17K

Variants of: B4
Conditions: with rel_human REL

Row | effect of a mutation on the interaction | Variant
4 | with no effect | E17K

Variants of: B5
Conditions: with cabl1_human CABLES1, Q8TDN4

Row | effect of a mutation on the interaction | Variant
5 | causing an interaction | E17K
